Yeast mating assay 2: variants of the scFv Ab-95

From the AlphaSeq antibody data of Engelhart et al. 2022 (doi:10.1038/s41597-022-01779-4), copy in the FLAb collection.

All variants were tested on one target, the spike HR2 peptide PDVDLGDISGINAS (SARS-CoV-2).

Each scFv is VH, the linker GGGGSGGGGSGGGGS, VL, as in the parent Ab-95, and differs from it in the CDRs of the light chain only.
VH: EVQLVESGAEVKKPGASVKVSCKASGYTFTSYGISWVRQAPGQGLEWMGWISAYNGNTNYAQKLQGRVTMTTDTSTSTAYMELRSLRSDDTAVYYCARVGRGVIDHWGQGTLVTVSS
VL: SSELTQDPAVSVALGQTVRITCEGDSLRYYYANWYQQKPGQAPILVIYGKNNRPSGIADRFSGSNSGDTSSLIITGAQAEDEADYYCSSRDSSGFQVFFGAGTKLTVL

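Phage display of a naive human antibody library on the peptide gave the parent. Library AAYL52 holds single substitutions and randomly drawn double and triple substitutions in the CDRs. The assay is AlphaSeq: two haploid yeast populations carry antibody and antigen on their surface. Pairs that bind mate more often; barcode pairs of the diploids are counted by sequencing. A regression on co-assayed BCL2-family reference pairs converts the normalised counts of each replicate to an apparent Kd. The assay was run in three technical replicates.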

Positions count from residue 1 of the parent VL; N51Y puts Y in place of N. Every variant below is changed at S92 of the VL (sequential numbering). Numbers give log10(Kd / nM), so 0 is 1 nM and 3 is 1 µM. Smaller is tighter. Replicates are averaged; those with no signal do not enter the mean. A pair that was not seen in any replicate is written "not detected"; this usually means weak binding, but a binder can also be missed. Nonspecific signal, from three strains lacking the peptide, appeared in 28% of pairings of library AAYL52, centred on 3.91 (5% of these signals below 2.90); values are not corrected for it.

| changes | log10 Kd (nM), mean | replicates with signal |
|---|---|---|
| N51Y D91K S92M | 3.85 | 3 of 3 |
| G49L R90V S92T | not detected | 0 of 3 |
| A32Q N51Y S92E | not detected | 0 of 3 |
| D25I N52Y S92T | 3.15 | 3 of 3 |
| N51I S92F | not detected | 0 of 3 |
| S88F S92A F95L | not detected | 0 of 3 |
| E23I S92M F98V | 2.88 | 2 of 3 |
| Y29V G49N S92L | 5.44 | 1 of 3 |
| S26V R28E S92R | 3.33 | 3 of 3 |
| N33G S92Q F98M | 3.59 | 2 of 3 |
| S92G Q96H V97H | 3.58 | 2 of 3 |
| S92T F95R | 2.22 | 3 of 3 |
| R90M S92T F95A | 3.26 | 3 of 3 |
| L27F S92M G94Y | 2.02 | 3 of 3 |
| S92G V97T | 2.53 | 3 of 3 |
| S89F R90T S92M | 3.29 | 3 of 3 |
| N52R D91I S92M | 3.21 | 3 of 3 |
| Y31N S55W S92I | 1.16 | 3 of 3 |
| G24P R90G S92I | 4.00 | 3 of 3 |
| E23D S88T S92G | not detected | 0 of 3 |
| G49S S92I V97G | 4.29 | 2 of 3 |
| D25M Y29W S92M | 3.47 | 1 of 3 |
| G49L S92Y S93D | not detected | 0 of 3 |
| S92W F95V | 3.29 | 3 of 3 |
| Y30D N51I S92L | 3.69 | 3 of 3 |
| D25Y R28E S92K | 2.60 | 3 of 3 |
| A32I S92Y S93Y | 4.20 | 2 of 3 |
| Y29W R90A S92V | 3.03 | 1 of 3 |
| S92I S93I F98R | 2.67 | 3 of 3 |
| K50Q D91S S92D | 2.04 | 3 of 3 |
| Y30C K50E S92R | 1.63 | 3 of 3 |
| E23L R53F S92V | not detected | 0 of 3 |
| E23L Y31N S92L | 0.82 | 3 of 3 |
| N33G S92W V97I | 4.11 | 2 of 3 |
| S92H V97E | not detected | 0 of 3 |
| E23M P54G S92L | 2.60 | 3 of 3 |
| R53V R90S S92I | 2.70 | 3 of 3 |
| S88F R90S S92C | 2.24 | 3 of 3 |
| A32K S92W S93T | 5.01 | 3 of 3 |
| R28D N33A S92V | 4.16 | 1 of 3 |
| R28Q S92I Q96L | 2.89 | 3 of 3 |
| N52C S92N S93L | not detected | 0 of 3 |
| N33P N51P S92P | 4.80 | 3 of 3 |
| D25I N52T S92G | 2.87 | 3 of 3 |
| G24R S89F S92D | 2.68 | 1 of 3 |
| N51Y S92L V97W | 4.17 | 2 of 3 |
| Y29F S92N G94F | 3.77 | 1 of 3 |
| N52E S88F S92P | not detected | 0 of 3 |
| D25K S92C | 2.30 | 3 of 3 |
| R28W S92C Q96D | 3.23 | 3 of 3 |
| S26R G49H S92M | 5.19 | 2 of 3 |
| P54I S92W | 3.76 | 2 of 3 |
| Y30W S55H S92T | 3.82 | 3 of 3 |
| A32T S92V | 2.00 | 3 of 3 |
| S92Q G94W F95V | 2.15 | 3 of 3 |
| R28C S92C | 4.01 | 2 of 3 |
| S92R V97W | 5.23 | 1 of 3 |
| L27I Y29H S92N | 2.89 | 3 of 3 |
| L27M S92N V97P | 3.56 | 3 of 3 |
| S55R S92T F98N | 3.52 | 1 of 3 |
| G49V S89W S92I | 3.58 | 1 of 3 |
| G24Y N51E S92G | 3.99 | 1 of 3 |
| Y29H S92P V97L | 3.69 | 3 of 3 |
| Y30E Y31R S92W | 1.57 | 3 of 3 |
| D25I P54G S92Y | 3.18 | 3 of 3 |
| N33P K50C S92A | 3.47 | 2 of 3 |
| S89T S92E G94C | 3.55 | 3 of 3 |
| E23R P54G S92F | 2.51 | 3 of 3 |
| R53Q D91V S92C | 2.83 | 1 of 3 |
| E23W N33H S92W | 3.40 | 1 of 3 |
| R28G R90Y S92Q | not detected | 0 of 3 |
| S26N N51S S92Y | 3.33 | 3 of 3 |

The 7 strongest on average among those seen in every replicate, once more:

| changes | log10 Kd (nM), mean | replicates with signal |
|---|---|---|
| E23L Y31N S92L | 0.82 | 3 of 3 |
| Y31N S55W S92I | 1.16 | 3 of 3 |
| Y30E Y31R S92W | 1.57 | 3 of 3 |
| Y30C K50E S92R | 1.63 | 3 of 3 |
| A32T S92V | 2.00 | 3 of 3 |
| L27F S92M G94Y | 2.02 | 3 of 3 |
| K50Q D91S S92D | 2.04 | 3 of 3 |